Reference: PubChem BioAssay AID781 (Emory University Molecular Libraries Screening Center, 2007)
The entries are a selection whose mix differs from that of the whole data set. Some results for these compounds are left out of this collection, so the calls shown say nothing about other tests. Activity calls are given as the source filed them.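 The calls were made as follows: active = inhibition above about 70% (limit read from the data); inactive = the rest.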

Chains of the proteins cited; added tags and fusions are not shown.
UniProt P63103, whole entry: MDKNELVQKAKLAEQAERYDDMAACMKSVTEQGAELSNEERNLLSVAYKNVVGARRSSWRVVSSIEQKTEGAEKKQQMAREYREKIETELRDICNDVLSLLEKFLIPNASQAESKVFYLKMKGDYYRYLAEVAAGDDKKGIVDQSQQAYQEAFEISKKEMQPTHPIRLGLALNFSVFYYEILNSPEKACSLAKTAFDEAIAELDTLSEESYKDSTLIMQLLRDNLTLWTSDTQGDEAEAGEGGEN

The compounds below were run against 14-3-3 protein zeta/delta (Bos taurus) (UniProt P63103) (assay: disruptors of 14-3-3 zeta phospho-Bad complex – biochemical, TR-FRET, bovine 14-3-3 zeta, primary screen (AID 781;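 also: 0% = full 14-3-3 plus peptide FRET controls and 100% = background without 14-3-3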)). Settings: TR-FRET 14-3-3zeta/Dy647-pBad peptide displacement, 1 h; at 21.7 µM; hits give high values.

| Structure (SMILES) | inhibition |
| --- | --- |
| CC(C)N1C(=O)CC2(CCN(CCOC(=O)C(O)(c3ccccc3)c3ccccc3)CC2)C1=O | inactive: 15.3% |
| CCN(CC)CC(C)C(C)OC(=O)C(O)(c1ccccc1)c1ccccc1 (stereo unspecified) | inactive: 0.73% |
| O=C(NCC1(N2CCCCC2)CCCCC1)c1cc([N+](=O)[O-])ccc1Cl | inactive: -7.25% |
| CCN1CCCC(OC(=O)C2(O)c3ccccc3C=Cc3ccccc32)C1 (stereo unspecified) | inactive: 0.16% |
| C=CCN1CCN(CCOC(=O)C(O)(c2ccccc2)c2ccccc2)CC1 | inactive: 13.8% |
| CN(C)C1CCCC1OC(=O)C(O)(c1ccccc1)c1ccccc1 (stereo unspecified) | inactive: -4.58% |
| Cc1ccccc1C(=O)NCC1(N2CCCCC2)CCCCC1 | inactive: 15.2% |
| COc1cccc(C(=O)NCC2(N3CCCCC3)CCCCC2)c1 | inactive: -7.74% |
| CN(C)c1cccc(C(=O)NCC2(N(C)C)CCCCC2)c1 | inactive: 7.77% |
| COc1ccc(Br)c(C(=O)NCC2(N3CCCCC3)CCCCC2)c1 | inactive: 5.14% |
| O=C(OC1CN2CCC1CC2)C(CO)(c1ccccc1)c1ccccc1 (stereo unspecified) | inactive: -8.53% |
